1 substance from patent US20250041292A1, “METHODS FOR TREATING PRIMARY IMMUNODEFICIENCY” (X4 Pharmaceuticals, Inc., priority 2021, published 2025) can be followed below.

Data set [1] can be described thus: Tolerability in clinical studies (healthy volunteers and patients, as of May 2019). In kind it is in vivo, human. The note with it: approximately 193 healthy volunteers and patients treated. The text has this:
As of May 2019, approximately 193 healthy volunteers and patients had been treated with mavorixafor in clinical studies (n=70 healthy volunteers, n=16 HIV, n=99 oncology, n=8 WHIM syndrome).

For data set [2], the system named is total peripheral WBCs. The data set can be described thus: Analysis of mavorixafor effects on WBCs across multiple disease states. The note with it: across all indications, alone or in combination with other drugs.

In the case of mavorixafor, the tolerability entry in data set [1] and in data set [2] was “generally well tolerated” throughout.
